Conditions in all cases: Table 5
Experiment [1] has as its target MphR variant S106F (pikB1, D3; SEQ ID NO: 10, 38) (Escherichia coli, UniProt Q9EVJ6, S106F). Type of experiment: cell-based. The text has this: (§1) The sensitivity of biosensors often requires tailoring to meet specific needs. […] A library of MphR gene mutations and variants was created by error-prone PCR (epPCR).
To test this, the aglycone 6-deoxyerythronolide B (6dEB) was produced via an engineered E. coli strain and purified by flash chromatography. […] To extend this to other systems, the ability of MphR was examined to detect macrolide antibiotics from S. venezuelae.
The ability of the MphR clone “PikB1” to detect a Solithromycin biosynthetic intermediate (see structure below) was determined.

The chains behind the UniProt entries cited, without tags or fusion partners.
UniProt Q9EVJ6, entry or part of it S106F: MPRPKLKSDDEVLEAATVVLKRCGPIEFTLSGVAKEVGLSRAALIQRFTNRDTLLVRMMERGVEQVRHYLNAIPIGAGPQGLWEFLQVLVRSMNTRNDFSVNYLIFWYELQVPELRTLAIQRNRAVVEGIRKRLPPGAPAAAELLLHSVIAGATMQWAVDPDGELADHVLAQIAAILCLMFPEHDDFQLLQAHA
UniProt Q9EVJ6, entry or part of it, stated change not applied: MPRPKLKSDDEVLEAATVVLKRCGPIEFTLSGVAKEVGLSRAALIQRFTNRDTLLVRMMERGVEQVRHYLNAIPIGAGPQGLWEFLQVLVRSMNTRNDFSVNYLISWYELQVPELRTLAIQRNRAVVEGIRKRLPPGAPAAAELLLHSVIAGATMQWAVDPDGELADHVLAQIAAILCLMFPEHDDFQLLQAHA

For experiment [2], the target named is T1, wild-type MphR with RBS mutations A1T/G2T/A3C (smRBS1A1, RBS TTCAGGT; SEQ ID NO: 53) (Escherichia coli, UniProt Q9EVJ6).
T1 construct: GFP reporter in E. coli
The experiment in a line: MphR-GFP biosensor dose-response, smRBS1A1. In kind it is cell-based.
Text: as §1

The target of experiment [3] is T2, wild-type MphR with E7 ribosome binding site mutation only (WT E7-RBS; SEQ ID NO: 32) (Escherichia coli, UniProt Q9EVJ6).
T2 construct: GFP reporter in E. coli
In kind it is cell-based.
Text: as §1
To confirm this, new versions of A3 and E7 were constructed that either only included the RBS mutations or the amino acids for each clone.

The target of experiment [4] is wild-type MphR (MphR(A), macrolide biosensor transcription factor), SEQ ID NO: 2 (gene SEQ ID NO: 1, 28) (Escherichia coli, UniProt Q9EVJ6).
Text: as §1
Molecular Biosystems. […] Previous literature reports various induction ranges for MphR-based biosensors depending on the plasmid construct.
Three and five site saturation mutagenesis libraries of the MphR gene that targeted residues of the ligand binding domain were generated using the Quikchange Multi Site-Directed mutagenesis kit (Agilent) and designated QCMS3 and QCMS5, respectively. A third library was generated via error-prone PCR (epPCR) with an average of two amino acid mutations per library clone. Libraries were transformed into E. coli TOP10 cells with plasmid pJZ12 (See FIG. 16 and sequence below) containing genes MphA and mrx and subjected to an initial round of negative sorting in the absence of added ligand via Fluorescence Activated Cell Sorting (FACS) to eliminate variants that are constitutively expressing GFP.
In Table 1, Hill functions were used to derive biosensor transfer functions. K1/2 is the inducer concentration at half maximal induction. Cooperativity is derived from the Hill function to indicate cooperative ligand binding between protein monomers of the MphR dimer. […] The linear range of detection is the linear portion of the dose-response curve with a slope R^2=0.95 or higher.

With `CC[C@H]1OC(=O)[C@H](C)C(=O)[C@H](C)[C@@H](O[C@@H]2O[C@H](C)C[C@H](N(C)C)[C@H]2O)[C@@H](C)C[C@@H](C)C(=O)/C=C/[C@]1(C)O` [pikromycin], the HillC in experiment [1] was determined as 1.8 ± 0.2; in experiment [2], 2.5 ± 0.2; in experiment [3] it was 2.3 ± 0.1; in experiment [4], 2.9 ± 0.3.
